Compounds with a hit are over-represented: about 16% of the library has one in this group of screens.
uPA generation – blocks generation of uPA at the cell surface; Potency, µM (titrated, usually from 38.3 µM), without a hit: at the top dose activity change, negative = inhibition, usual class: inhibitors; cell surface uPA generation assay, qHTS; 330,000 compounds, 0.31% hits; AID 540303; active means well fitted inhibition curve with a large enough effect; inconclusive means small, poorly fitted or top-dose-only effect; inactive means no such curve, though single readings can be large or run the other way; tested in mouse RAW 264.7 cells; further: potency means the concentration at half of the fitted maximal effect; on the % scale 0 is the no-effect control and ±100 the full control effect; nearly all actives have a fitted effect of over 55% in size
miR-21 reporter – raises the signal of a miR-21 reporter | HeLa miR-21 FLuc reporter, luciferase, 48 h | Potency, µM (highest dose often 38.3 µM), inactives show at the highest dose reporter change, positive = more light | 340,000 tested, under 10 active | AID 2288; active = well fitted rising curve with a large enough effect; inconclusive = small, poorly fitted or top-dose-only effect; inactive = no such curve, though single readings can be large or run the other way;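 note: % of control where 0% means no effect; miR-21 action dims this reporter so a rising signal means less miR-21 action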
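Using DMEM plus 10% FBS, HeLa miR-21-FLuc cells are incubated with test compounds (final up to about 40uM) for 48 hours; firefly luciferase signal is then imaged following reagent-mediated lysis.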
TDP1 block – inhibitors of human tyrosyl-DNA phosphodiesterase TDP1. Q9NUW8. recombinant TDP1, AlphaScreen DNA substrate cleavage. Potency, µM (doses to about 130 µM), for inactives: at the top dose activity change, negative = inhibition, usual class: inhibitors. 350,000 compounds, 0.28% hits. AID 485290; further: potency means the concentration at half of the fitted maximal effect; on the % scale 0 is the no-effect control and ±100 the full control effect; nearly all actives have a fitted effect of over 40% in size
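Recombinant E. coli-expressed Tdp1 (1 nM) preincubated with compound 15 min at RT, then 5'-biotin/3'-phosphotyrosine-FITC DNA substrate (15 nM) added for 5 min. AlphaScreen beads (10 ug/ml) added, 10 min RT; tyrosine-FITC cleavage read as signal loss.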
DT40 TDP1 no CPT – qHTS for Inhibitors of human tyrosyl-DNA phosphodiesterase 1 (TDP1): qHTS in cells in absence of CPT | DT40 Tdp1-/- hTDP1 cells, no CPT, ATP luminescence, 48 h | Potency, µM (top dose mostly 46.2 µM), for the others: at the top dose activity change, negative = growth inhibition, hits mostly inhibitors | 420,000 compounds, 15% hits | AID 686978, 2013; further: potency means the concentration at half of the fitted maximal effect; on the % scale 0 is the no-effect control and ±100 the full control effect; nearly all actives have a fitted effect of over 55% in size
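Chicken DT40 Tdp1-/- cells complemented with human TDP1, screened without camptothecin (DMSO vehicle only), 400 cells/well. Compounds pin-transferred, cells incubated at 37 °C for at least 48 hr. Growth read as ATP-dependent luminescence (CellTiter-Glo, 30 min at RT).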
TDP1 cell CPT – DT40-hTDP1 cell growth loss with CPT. chicken DT40 Tdp1-/-;hTDP1 cells + 20 nM CPT, ATP luminescence, 48 h. Potency, µM (highest dose often 46.2 µM), inactives show at the top dose activity change, negative = growth inhibition, most hits filed as inhibitors. 420,000 compounds, 12% hits. AID 686979; further: potency means the concentration at half of the fitted maximal effect; on the % scale 0 is the no-effect control and ±100 the full control effect; nearly all actives have a fitted effect of over 55% in size
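Cell growth measured by CellTiter-Glo luminescence after a minimum 48 h, 37 C compound exposure with 20 nM CPT in Tdp1-knockout DT40 cells stably expressing hTDP1, seeded 400/well; qHTS titration format.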
The depositor's hits bear a star; ? = inconclusive; · = not tested or not shown; ! = not active in a repeat; [ ] = dose if it differs, or a comment. Unless noted, the call rests on the fitted dose curve; in most records, active means well fitted curve in the direction sought with a large enough effect; inconclusive means small, poorly fitted or top-dose-only effect, or another doubt; inactive means no such curve, though single readings can be large; an effect the other way counts as inactive or inconclusive.

[1] Cc1oc(S(=O)(=O)N2CCCCC2)cc1NC(=O)Nc1ccccc1
[2] C=CCN(Cc1ccco1)S(=O)(=O)c1ccc(Cl)cc1
[3] CC(C)(C)c1ccc(C(=O)Cn2cnnc2C#N)cc1
[4] O=C(CCCCCN1C(=O)CCC1=O)Nc1ccc2c(c1)OCO2
[5] CC(C)CCNC1c2ccccc2C(=O)N1Cc1ccccc1 (configuration not stated)
[6] O=C(C[n+]1ccc(C(=O)NCc2ccccc2)cc1)c1ccc(F)cc1
[7] O=C(COc1ccc(C(=O)Nc2ccc(Cl)cc2)cc1)NCc1ccccc1
[8] CC(=O)OC1(C)C=Cc2ccccc2C1=NS(=O)(=O)c1ccccc1 (configuration not stated)

assay / compound	1	2	3	4	5	6	7	8
uPA generation	10%	-2%	-1%	0%	-1%	·	2%	·
miR-21 reporter	-2%	-1%	-15%	-21%	2%	·	-17%	·
TDP1 block	·	-5%	·	3%	·	·	3%	·
DT40 TDP1 no CPT	?	22%	16µM*	-23%	23µM*	-19%	?	23µM*
TDP1 cell CPT	?	-12%	21µM*	-6%	-24%	-3%	-16%	?

[9] O=C1C(NS(=O)(=O)c2cccs2)=C(N2CCN(c3cccc(Cl)c3)CC2)C(=O)c2ccccc21
[10] Cc1cc(N2CCCCC2)nc2ccc(NC(=O)c3ccc(F)cc3)cc12
[11] COc1cccc(C(=O)Nc2ccc3nc(N4CCC(C)CC4)cc(C)c3c2)c1
[12] COc1ccc(C(=O)Nc2ccc3nc(N4CCC(C)CC4)cc(C)c3c2)cc1
[13] COc1ccc(N/C=C2\C(=O)CCc3c2oc2cc(Cl)c(O)c(Cl)c32)cc1
[14] O=C(Nc1ccccc1Cl)N1CCn2c(nc3ccccc32)C1
[15] COc1ccccc1NC(=O)CCC(=O)OCc1ccc(Cl)cc1
[16] CC(C)(C)c1cc(C(C)(C)C)c2oc(=O)c(-c3nc4ccc(C(=O)O)cc4[nH]3)cc2c1

assay / compound	9	10	11	12	13	14	15	16
uPA generation	8%	·	·	·	-7%	2%	2%	·
miR-21 reporter	-3%	12%	12%	4%	-1%	-10%	-1%	-3%
TDP1 block	14%	5%	9%	3%	-9%	7%	3%	·
DT40 TDP1 no CPT	23µM*	15µM*	21µM*	16µM*	?	?	13%	?
TDP1 cell CPT	21µM*	21µM*	12µM*	23µM*	-28%	0%	-13%	?

[17] CC(C)(C)c1cc(C(C)(C)C)c2oc(=O)c(-c3nc4ccccc4[nH]3)cc2c1
[18] COc1ccccc1NC(=O)N1CC(=O)Nc2sc3c(c2C1c1ccccc1)CCCC3 (configuration not stated)
[19] CCc1c(C)sc2c1CCN(C(=O)Nc1cc(OC)c(OC)c(OC)c1)C2c1ccccc1 (configuration not stated)
[20] CCc1c(C)sc2c1CCN(Cc1cccc(OC)c1)C2c1ccccc1 (configuration not stated)
[21] Cc1ccccc1NC(=O)N1CCc2c(sc3c2CCCC3)C1c1ccccc1 (configuration not stated)
[22] CCOC(=O)c1ccccc1NC(=O)N1CCc2c(sc(C)c2CC)C1c1ccccc1 (configuration not stated)
[23] CCOc1ccccc1NC(=O)N1CCc2c(sc3c2CCCC3)C1c1ccccc1 (configuration not stated)
[24] COc1cccc(CN2CCCCC2C(=O)O)c1 (configuration not stated)

assay / compound	17	18	19	20	21	22	23	24
uPA generation	·	·	·	·	·	·	·	1%
miR-21 reporter	9%	-4%	15%	?	17%	-9%	-3%	-2%
TDP1 block	2%	3%	9%	1%	-4%	4%	4%	5%
DT40 TDP1 no CPT	8.2µM*	18µM*	?	5.2µM*	?	16µM*	23µM*	-2%
TDP1 cell CPT	9.2µM*	23µM*	?	7.3µM*	?	?	?	15%

A draw from above in order of formula weight, lowest first:
[5] CC(C)CCNC1c2ccccc2C(=O)N1Cc1ccccc1 (configuration not stated)
[4] O=C(CCCCCN1C(=O)CCC1=O)Nc1ccc2c(c1)OCO2
[11] COc1cccc(C(=O)Nc2ccc3nc(N4CCC(C)CC4)cc(C)c3c2)c1
[13] COc1ccc(N/C=C2\C(=O)CCc3c2oc2cc(Cl)c(O)c(Cl)c32)cc1

assay / compound	5	4	11	13
uPA generation	-1%	0%	·	-7%
miR-21 reporter	2%	-21%	12%	-1%
TDP1 block	·	3%	9%	-9%
DT40 TDP1 no CPT	23µM*	-23%	21µM*	?
TDP1 cell CPT	-24%	-6%	12µM*	-28%

(next part)
[25] CC(C)c1ccc(NC(=O)NC(C)c2ccc3c(c2)OCO3)cc1 (configuration not stated)
[26] On1nnc2c3ccccc3c3ccccc3c21
[27] COc1ccccc1CNC(=O)COC(=O)CCN1C(=O)C2CC=CCC2C1=O (configuration not stated)
[28] Cc1ccc(NC(=O)N2CCc3c(sc4c3CCCC4)C2c2ccccc2)cc1F (configuration not stated)
[29] O=C(Nc1ccc(F)cc1F)N1CCc2c(sc3c2CCCC3)C1c1ccc(F)cc1 (configuration not stated)
[30] O=C(c1ccc(F)cc1)C1CCN(C(=O)Nc2ccc(F)cc2F)CC1
[31] Cc1ccc(NC(=O)C2=C(C(=O)O)CCCC2)cc1F
[32] CCCCCc1c(C)nc(Nc2ccc(F)cc2)[nH]c1=O

assay / compound	25	26	27	28	29	30	31	32
uPA generation	15%	2%	·	·	·	4%	0%	0%
miR-21 reporter	-1%	2%	·	-23%	12%	10%	-9%	-3%
TDP1 block	1%	6%	·	-4%	4%	7%	6%	-1%
DT40 TDP1 no CPT	?	3%	-6%	15µM*	18µM*	?	-11%	16µM*
TDP1 cell CPT	-39%	6%	5%	?	?	-18%	2%	?

[33] CCCc1c(C)nc(N2CCN(c3ccc(F)cc3)CC2)[nH]c1=O
[34] CCCCc1c(C)nc(Nc2ccc(OC)cc2)[nH]c1=O
[35] COc1ncc2nc(CCc3ccccc3)c(=O)n(CCc3ccccc3)c2n1
[36] COc1ccc(-c2c(NC(=O)c3ccco3)oc3ccccc3c2=O)cc1
[37] CC12CCC(C(=O)CC1=O)C2(C)C (configuration not stated)
[38] CC1(C)[C@@H]2CC[C@@]1(C)C(=O)C2
[39] COc1cc(OC)cc(C(=O)Nc2nc(-c3ccccc3)c(-c3ccccc3)o2)c1
[40] Oc1cc(O)cc(/C=C/c2ccc(O)c(O)c2)c1

assay / compound	33	34	35	36	37	38	39	40
uPA generation	27%	-1%	·	-4%	3%	·	?	7.9µM*
miR-21 reporter	-1%	-4%	·	-10%	·	·	-2%	·
TDP1 block	·	6%	·	7%	·	9%[56.1 µM]	8%	2%
DT40 TDP1 no CPT	?	13µM*	-1%	0%	-2%	3.3µM*!	10µM*	0.65µM*
TDP1 cell CPT	?	?	?	-14%	-16%	8.4µM*!	7.3µM*	10µM*!

[41] COCCCNC(=O)C1CCN(c2nc(C)cc(C)n2)CC1
[42] Cc1cccc(Cn2c(CN3CCC(C(=O)NCCc4ccccc4)CC3)cc3ccccc32)c1
[43] O=C(NCCc1ccc(Cl)cc1)C1CCN(Cc2cc3ccccc3n2Cc2ccccc2)CC1
[44] Cc1ccc(Cn2c(CN3CCC(C(=O)O)CC3)cc3ccccc32)cc1
[45] Cc1cc(C)nc(N2CCC(C(=O)Nc3ccc4c(c3)OCO4)CC2)n1
[46] Cc1cc(C)nc(N2CCC(C(=O)NCCc3ccccc3)CC2)n1
[47] CC(C)(C)OC(=O)N1CCC(C(=O)Nc2cccc(C(=O)NCCCc3ccccc3)c2)CC1

assay / compound	41	42	43	44	45	46	47
uPA generation	·	·	·	·	7%	1%	?
miR-21 reporter	1%	?	?	-9%	-4%	-4%	·
TDP1 block	5%	2%	-3%	3%	12%	-3%	·
DT40 TDP1 no CPT	2%	18µM*	18µM*	-27%	9.2µM*	9.2µM*	21µM*
TDP1 cell CPT	7%	?	23µM*	-30%	8.2µM*	8.2µM*	15µM*
